# Yeast mating assay B: variants of the scFv Ab-14

The measurements come from Li et al. 2023 (doi:10.1038/s41467-023-39022-2) through the FLAb antibody collection.

Target: peptide PDVDLGDISGINAS, taken from heptad repeat 2 (HR2) of SARS-CoV-2 spike.

Parent: Ab-14, a human scFv built as VH, the linker GGGGSGGGGSGGGGS, VL. Only the CDRs of the light chain vary.
VH: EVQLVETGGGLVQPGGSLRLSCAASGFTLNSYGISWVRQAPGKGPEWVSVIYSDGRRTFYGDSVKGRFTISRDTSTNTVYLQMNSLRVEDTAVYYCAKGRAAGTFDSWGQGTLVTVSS
VL: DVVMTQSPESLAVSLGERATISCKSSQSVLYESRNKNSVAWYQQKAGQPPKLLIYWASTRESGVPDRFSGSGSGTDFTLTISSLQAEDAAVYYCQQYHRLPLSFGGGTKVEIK

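Designed CDR sequences, proposed from the first random library and measured here. Several design methods are mixed in this list. In AlphaSeq, yeast of one mating type display the scFv and yeast of the other type display the target. Pairs that bind mate more often; barcode pairs of the diploids are counted by sequencing. Read counts were normalised to the haploid input and turned into Kd by a linear fit to BCL2-family pairs of known affinity, for each replicate. There are six technical replicates.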

Each variant is given by its three light chain CDRs, as the data file delimits them; those of the parent are KSSQSVLYESRNKNSVA, WASTRES, QQYHRLPLS.
This list holds designs with more than six substitutions.
The read-out is the apparent dissociation constant on a log10 scale (nM): the lower, the stronger.
Replicates are averaged; those with no signal do not enter the mean.
An entry "nd" has no value in the source: the pair was not observed among the diploids in that replicate. This suggests poor binding but is not conclusive.
Values of this round are not directly comparable with the first-round values of the same sequences.
In the paper, a design with two or fewer of six values counts as a poor binder.
Of ten entries with the parent sequence, four were seen in most replicates (averages 0.34 to 2.37), three in one and three in none, so single entries are noisy.
Three control strains display no target. For all light chain designs, 4% of the pairings with them gave a signal, with a median of 2.64 and one signal in twenty below 1.59, so weak values seen in few replicates may be background.

With NLVQMKSVGDYNAGNVA | AGNQRSV | QQYNRLPLI the result was 0.30, 0.12, 0.32, 0.48, 0.29, 0.44 (mean 0.32). Variant IISQVDAYQSRNKNSIA | DQSTRGS | QQYDRLPLS gave 0.79, 0.56, 0.54, 0.40, 0.30, 0.73 (mean 0.55). With MISQLYNYGTFAINSVA | QASIRCN | QQYDRLPLM the result was nd, 2.08, nd, nd, 2.27, 2.43 (mean 2.26). Variant NFPQETMYESHFKNNVA | QTSTREP | QQYDHLPLS showed 0.48, 0.17, 0.63, 0.21, 0.63, 0.28 (mean 0.40). Variant TISQMLLMQTGHKNSVA | GEETRYN | QQYHHLPLS showed 0.24, 0.30, 0.33, 0.47, 0.30, 0.86 (mean 0.42). For KVSEFMRGLMSRKDSIA | DNETRSN | QQYDRLPLS, the assay gave 1.66, 1.76, 1.21, 1.42, 1.79, 2.05 (mean 1.65). Variant KCAQNVLIMGRGKNNVA | EMTTREE | QQYDRLPLS showed 1.69, 0.58, 2.21, 0.33, 0.80, 0.76 (mean 1.06). For HVAQTRQEDINNKKSVA | EGSVVID | QQYSKLPFS, the assay gave 1.15, 0.73, 0.42, 0.97, 0.60, 0.69 (mean 0.76).

For KVNGLMNIEQMNSKSVA | QSTTREN | QQYHRLPLS, the assay gave 2.19, 0.58, 1.59, 0.86, 1.24, 1.66 (mean 1.35). With HVMHEQLDYKNYENNIA | HESQRLY | QQYSHLPLS the result was 1.12, 0.60, 0.62, 0.74, 0.96, 0.78 (mean 0.80). Variant MLSDLVWMGVRNTNSVA | DNSTRGS | QQYDRLPLS showed nd, nd, 1.76, nd, nd, nd. Variant SFSQSVLYESVHKNNVA | QTSTRES | QQYDHLPLS gave 0.94, 0.27, 0.21, 0.16, 1.00, 0.81 (mean 0.56). For HLSAMSLTETVKSRNVA | ENSTREQ | QQYDRLPLA, the assay gave nd, nd, nd, nd, nd, nd. Variant KLSMTTEMEHKNRNSVA | ELVTRMN | QQYNRLPLS showed 1.03, 1.42, 0.78, 0.73, 0.28, 1.77 (mean 1.00). With KLQQSKEYLSRWKNSVA | HASVREV | QQYHRLPLS the result was 1.41, 1.31, 2.39, 2.45, 1.98, 1.87 (mean 1.90). With ILYDEVGTLSRNKNSVA | DNSTRES | QQYDRLPLS the result was 1.48, 1.49, 1.44, 1.59, 2.30, 2.14 (mean 1.74).

Variant HLLQTVMYGSTRKNSVA | HAQTREN | QQYHRLPLM gave nd, 2.08, 2.19, 2.29, 2.56, 1.88 (mean 2.20). With KISQVAMTTGKHSNSVA | NAYNRVQ | QQYHRLPLS the result was 1.57, 1.69, 1.14, 1.44, 1.30, 1.51 (mean 1.44). With QLSMWEQNGGRGYSSVA | DDDVRMA | QQYHRLPLS the result was 0.47, 0.36, 0.05, 0.25, 0.36, 0.40 (mean 0.32). With KLRQVTGYESYSKNSVA | QTSTRAS | QDYHRLPLS the result was 1.24, 1.09, 1.62, 1.03, 0.67, 1.46 (mean 1.18). Variant NVDISENVNYNHKAAVA | GHDERVG | QQYSRLPLA showed 0.50, 0.24, 0.09, 0.00, 0.09, 0.20 (mean 0.19). For KLDMNELGYSQLSSSVA | GSANKCQ | QQYFRLPLS, the assay gave -0.02, -0.72, -0.24, -0.49, -0.19, -0.32 (mean -0.33). Variant RISFGSYPGSLWHNNIA | GGAQRAE | QQYSRLPLN gave 1.23, 0.97, 1.42, 1.23, 1.16, 1.57 (mean 1.27). With HITYGMNVAGRHSSSIA | QAEEREK | QQYDRLPLI the result was 0.39, 0.04, 0.25, -0.01, -0.03, 0.55 (mean 0.20).

Variant TIQQMMSLFSQTINNVA | EVSTREK | QQYDRLPLA showed 0.92, 1.06, 0.79, 1.18, 1.14, 1.24 (mean 1.05). With RIQMTDLEGRMAWNNIA | DMEESYR | QQYVRLPLY the result was 0.88, 0.62, 0.49, 0.59, 0.73, 0.58 (mean 0.65). Variant IVSQLMIWGMHLKNSIA | EAETRLN | QQYDRLPLF showed nd, 1.74, nd, 2.23, nd, nd (mean 1.98). Variant KLSQSMWYESRNSNSVA | NASNRLS | QQYHRLPLS showed -0.27, -0.16, -0.12, 0.14, 0.08, -0.06 (mean -0.07). For KLQFSCLYESRNPNSVA | NASYRSS | QQYHRLPLS, the assay gave 0.65, 1.68, 0.91, 1.54, 0.74, 2.08 (mean 1.27). For KFEPSWLYESRNVNSVA | NASTRSQ | QQYHRLPLS, the assay gave -0.21, -0.21, -0.26, -0.17, -0.25, 0.00 (mean -0.18). Variant VLSASELYEDRPKNSVA | NASQRMQ | QQYHRLPLS gave -0.03, -0.21, 0.06, -0.02, 0.28, 0.19 (mean 0.04). Variant KLSNVTEYESRNKNNVA | DLTTRGS | QDYHRLPLS gave 0.17, 0.08, 0.13, -0.19, 0.19, 0.17 (mean 0.09).

With KISGYLNKESKNKNSVA | EMVNREE | QQYDRLPLS the result was 0.96, 0.79, 0.80, 0.47, 0.68, 1.23 (mean 0.82). For KLEQSWEYESRNSNNVA | QASTRSD | QQYHRLPLS, the assay gave -0.10, -0.30, -0.20, -0.44, -0.36, -0.03 (mean -0.24). Variant MLLQATMYGERQRNSVA | HAQTRED | QQYHRLPLI showed nd, nd, nd, 2.57, nd, 2.44 (mean 2.51). For KMAQGWMYESRWKNSVA | NASVRES | QQYHRLPLS, the assay gave 0.26, 0.19, 0.13, 0.04, 0.05, 0.11 (mean 0.13). With TISQVHGMLSHNKNSVA | DMNTRGS | QQYDRLPLS the result was 0.59, 0.65, 0.55, 0.56, 0.98, 1.77 (mean 0.85). Variant KLSQQGHYGSRNANNVA | NASQREQ | QQYHRLPLS gave 0.49, -0.05, 0.02, 0.25, -0.02, 0.31 (mean 0.17). Variant MLSQLFMYGSRNYNSVA | QASTRES | QQYHRLPLI gave 3.13, 1.10, 1.31, 1.68, 1.28, 2.00 (mean 1.75). With NLVEDEGTNQTKMGNIA | SVDQRMD | QQYQRLPLI the result was 0.76, 0.62, 0.72, 0.28, 0.57, 0.61 (mean 0.59).

For MMSQVTGLGQRTRNNVA | QTSTREE | QQYDRLPLI, the assay gave 0.41, 0.64, 0.85, 0.64, 0.96, 0.43 (mean 0.65). For MISVMEAPAGQQESSIA | HGGTKSE | QQYNRLPLA, the assay gave 1.40, 1.50, 0.97, 1.12, 1.53, 1.73 (mean 1.37). For SIGGHMKSSMAHRNSVA | DMTNREN | QQYDRLPLS, the assay gave 0.69, 0.57, 0.44, 0.56, 0.40, 0.40 (mean 0.51). For KLSMETYGLTGHMSSIA | HQEIRWA | QQYHKLPLI, the assay gave nd, nd, nd, 3.12, nd, 1.85 (mean 2.49). For MVTQMAMTGMMSKRSVA | NAETREK | QQYHRLPLI, the assay gave 1.17, 0.64, 1.24, 1.13, 0.36, 1.51 (mean 1.01). With KLDQKNRVNGMACYNVA | DSNNRLD | QQYHRLPLI the result was 1.35, 0.78, 2.35, 1.56, 1.74, 1.56 (mean 1.56).

6 of these entries, quoted again:

{"CDR-L1": "HLSAMSLTETVKSRNVA", "CDR-L2": "ENSTREQ", "CDR-L3": "QQYDRLPLA", "log10 Kd (nM) by replicate": "nd, nd, nd, nd, nd, nd", "log10 Kd (nM), mean": "nd"}
{"CDR-L1": "RISFGSYPGSLWHNNIA", "CDR-L2": "GGAQRAE", "CDR-L3": "QQYSRLPLN", "log10 Kd (nM) by replicate": "1.23, 0.97, 1.42, 1.23, 1.16, 1.57", "log10 Kd (nM), mean": "1.27"}
{"CDR-L1": "HITYGMNVAGRHSSSIA", "CDR-L2": "QAEEREK", "CDR-L3": "QQYDRLPLI", "log10 Kd (nM) by replicate": "0.39, 0.04, 0.25, -0.01, -0.03, 0.55", "log10 Kd (nM), mean": "0.20"}
{"CDR-L1": "MISQLYNYGTFAINSVA", "CDR-L2": "QASIRCN", "CDR-L3": "QQYDRLPLM", "log10 Kd (nM) by replicate": "nd, 2.08, nd, nd, 2.27, 2.43", "log10 Kd (nM), mean": "2.26"}
{"CDR-L1": "KVNGLMNIEQMNSKSVA", "CDR-L2": "QSTTREN", "CDR-L3": "QQYHRLPLS", "log10 Kd (nM) by replicate": "2.19, 0.58, 1.59, 0.86, 1.24, 1.66", "log10 Kd (nM), mean": "1.35"}
{"CDR-L1": "IVSQLMIWGMHLKNSIA", "CDR-L2": "EAETRLN", "CDR-L3": "QQYDRLPLF", "log10 Kd (nM) by replicate": "nd, 1.74, nd, 2.23, nd, nd", "log10 Kd (nM), mean": "1.98"}